Reference: US11976137B2, “Compounds for use as apelin receptor antagonists” (Cambridge Enterprise Limited, priority 2018, dated 2024)

Key:
human apelin receptor [1] = target: T1, human apelin receptor (Homo sapiens, UniProt P35414); details: antagonism of [Pyr1]apelin-13 inhibition of forskolin-stimulated cAMP
T1 sequence (P35414 1-380): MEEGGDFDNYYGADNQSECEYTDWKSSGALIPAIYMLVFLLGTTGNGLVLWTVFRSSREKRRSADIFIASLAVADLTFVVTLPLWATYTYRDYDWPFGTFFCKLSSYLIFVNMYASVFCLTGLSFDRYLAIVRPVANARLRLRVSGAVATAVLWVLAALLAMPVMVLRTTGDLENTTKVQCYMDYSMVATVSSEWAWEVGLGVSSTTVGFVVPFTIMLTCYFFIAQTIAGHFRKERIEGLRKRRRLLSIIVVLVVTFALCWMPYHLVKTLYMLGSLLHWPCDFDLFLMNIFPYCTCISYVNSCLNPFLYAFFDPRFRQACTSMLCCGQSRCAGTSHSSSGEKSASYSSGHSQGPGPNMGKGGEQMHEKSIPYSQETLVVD
Description: Antagonist activity at the apelin receptor was measured in two assays.
(§1) cAMP (cAMP Hunter™ eXpress AGTRL1 CHO-K1 GPCR Assay, DiscoverX Corporation, Ltd. Birmingham, UK) and β-arrestin (PathHunter® eXpress AGTRL1 CHO-K1 β-Arrestin GPCR Assay, DiscoverX Corporation, Ltd. Birmingham, UK) assays were performed according to the manufacturer's instructions. The cAMP assay measures the canonical signalling pathway through the G-protein. The β-arrestin assay measures the alternative signalling pathway and receptor internalisation.
Cells were then incubated with a mixture of Lysis Buffer, cAMP Buffer D and Detection Reagents for 1 hour at room temperature, followed by a 3 hour incubation with cAMP Reagent A at room temperature. Chemiluminescence was read using the LumiLITE™ Microplate Reader (DiscoverX). Concentration-response data for agonists, measured in relative light units (RLU), were analysed using a 4 parameter logistic equation in GraphPad Prism 6 (La Jolla, CA, USA) to determine values of potency expressed as the pD2 value (negative logo of the EC50 (where EC50 is the concentration producing half maximal response)), and maximum response (EMAX). Mean data from replicate experiments were normalised as percentage inhibition of forskolin-stimulated cAMP production.

human apelin receptor [2] = target: T1, human apelin receptor
Description: as §1
For recruitment of β-arrestin, CHO-K1 cells artificially expressing the human apelin receptor were seeded in Cell Plating medium into 96-well plates and incubated for 48 hours at 37° C. in 5% CO2. Concentration response curves were constructed to test peptides (1 pmol/L-30 μmol/L) which were diluted in Cell Plating medium and added to the cells for 90 minutes at 37° C. If no response was obtained then test peptides were investigated as antagonists. […] Detection reagents were then added for a 2-hour incubation at room temperature. […] If no agonist response was obtained, test compounds were investigated for antagonist activity by repeating [Pyr]apelin-13 concentration response curves in the absence and presence of a single concentration (1-30 μmol/L of test peptide). Data were analysed as described for the cAMP assay using the Gaddum/Schild EC50 function in GraphPad Prism 6 to determine values of pA2.

## CCCC[C@H](NC(=O)[C@H](CCCNC(=N)N)NC(=O)C(C)(C)NC(=O)[C@H](CCCNC(=N)N)NC(=O)[C@H](CC)NC(=O)[C@H](Cc1c[nH]cn1)NC(=O)[C@H](CCCCN)NC(=O)[C@H](CC)NC(=O)[C@H](CCCC)NC(=O)[C@H](CCCNC(=N)N)NC(=O)[C@@H]1CCCN1C(=O)[C@H](CCCNC(=N)N)NC(=O)[C@@H]1CCC(=O)N1)C(=O)N[C@@H](Cc1cc(F)c(F)c(F)c1)C(=O)O [MM301, Pyr-RPR-Nle-Abu-KH-Abu-R-Aib-R-Nle-(3,4,5-trifluorophenylalanine)]
Human apelin receptor [1]
  DRx cAMP pA2: 6.29
Human apelin receptor [2]
  DRx β-Arrestin pA2: 7.28
